Laboratory results as given in patent US9216983B2, “Dihydroorotate dehydrogenase inhibitors with selective anti-malarial activity” (BOARD OF REGENTS, UNIVERSITY OF TEXAS SYSTEM, priority 2007, dated 2015).

Biological target: T1, PfDHODH (Plasmodium falciparum, UniProt Q08210)
T1 sequence (Q08210 24-569): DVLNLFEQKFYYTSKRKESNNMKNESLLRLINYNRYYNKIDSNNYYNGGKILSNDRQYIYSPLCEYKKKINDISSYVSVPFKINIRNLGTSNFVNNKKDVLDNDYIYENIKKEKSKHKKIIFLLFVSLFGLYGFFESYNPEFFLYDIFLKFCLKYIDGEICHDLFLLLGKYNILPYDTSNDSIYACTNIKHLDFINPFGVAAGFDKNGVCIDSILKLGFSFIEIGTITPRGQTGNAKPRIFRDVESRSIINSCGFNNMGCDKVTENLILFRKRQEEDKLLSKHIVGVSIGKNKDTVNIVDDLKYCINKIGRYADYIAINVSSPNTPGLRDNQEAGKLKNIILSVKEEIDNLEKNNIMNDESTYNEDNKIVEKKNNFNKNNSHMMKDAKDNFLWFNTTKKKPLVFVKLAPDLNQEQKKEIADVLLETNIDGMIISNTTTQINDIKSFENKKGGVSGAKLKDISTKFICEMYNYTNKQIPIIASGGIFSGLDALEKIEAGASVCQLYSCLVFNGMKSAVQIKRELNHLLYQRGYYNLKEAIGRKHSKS
Experiment: biochemical
Conditions: Table 4, IC50 class
Experimental: Briefly, the assay solution contained 100 mM HEPES, pH 8.0, 150 mM NaCl, 10% glycerol, 0.1% Triton X-100, 20 micro molar COQD (coenzyme QD), 200 micro molar L-dihydroorotate, and 120 micro molar DCIP. Reactions are initiated by addition of enzyme to a final concentration in the range of about […] to about 50 nM while maintaining the temperature of a circulating water bath at 25° C.
Assay solutions were prepared as discussed above, except that DCIP is not present and the solution is depleted of oxygen by the inclusion of an oxidase/reductase system, such as, 0.1 mg/ml of glucose oxidase, 0.02 mg/ml catalase and 50 mM glucose. The data obtained is fitted to equation 1, to determine the IC50 values of the representative compounds.

SMILES: C=Cc1ccc(Nc2cc(C)nc3ncnn23)cc1
- IC50: < 2000 nM
